Values of other authors as cited in patent US9050475B2, “High SPF sunscreen compositions” (MD SOLARSCIENCES CORP., priority 2010, dated 2015).
Only a part of the results on these compounds is given; other tests are left out.

Conditions: known UV-A or UV-B protection properties of FDA-approved sunscreens

triethanolamine salicylate
Range Covered: UV-B (UV-B: 290-320 nm)
